According to ChEMBL document CHEMBL5331113 (J Med Chem, 2023):

Molecular target: T1, Succinate receptor 1 (Mus musculus) (UniProt Q99MT6)
T1 sequence (whole entry): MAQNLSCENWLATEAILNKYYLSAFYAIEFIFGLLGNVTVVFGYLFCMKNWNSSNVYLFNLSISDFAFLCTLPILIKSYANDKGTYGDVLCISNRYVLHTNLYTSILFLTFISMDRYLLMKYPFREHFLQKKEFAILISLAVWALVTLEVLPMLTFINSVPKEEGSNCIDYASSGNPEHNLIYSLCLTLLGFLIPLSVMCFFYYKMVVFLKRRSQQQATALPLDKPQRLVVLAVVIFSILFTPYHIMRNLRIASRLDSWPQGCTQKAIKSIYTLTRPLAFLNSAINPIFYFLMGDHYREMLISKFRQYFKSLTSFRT
Assay: Binding affinity to N-terminal Nluc-tagged mouse succinate receptor 1 expressed in human Flp-In-T-REx-293 cells upto 10 uM incubated for 5 mins by BRET assay
Format: cell-based

- Activity: inactive
SMILES: Cc1cc(CN2CCN(CCNC3C=CC([N+](=O)[O-])c4nonc43)CC2)ccc1-c1cccc(C(=O)Nc2ccccc2CC(=O)O)c1 (stereo unspecified)

Calls of active or inactive are those of the source. The calls are words filed in the database; no cut-off is given here.
